# Data reported in PubChem BioAssay AID602252 (Broad Institute, 2012).
# This is a selection; strong and weak results do not stand in their true shares. Some of these compounds have results that are not shown, active ones among them. Activity calls are given as the source filed them.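 How the source made its calls: active means mean inhibition of at least 30% with at least half of replicates also reaching 30%; inconclusive means no clear call, values can overlap the other calls; inactive means the rest.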
# Biological target: Golgi-associated PDZ and coiled-coil motif-containing protein (Homo sapiens) (UniProt Q9HD26)
# Assay: blockade of CAL PDZ-reporter peptide interaction – biochemical, fluorescence polarization, untagged CAL PDZ, HTS, primary screen (AID 602252);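 further: 0% = DMSO neutral control and 100% = excess unlabeled competitor peptide PRC23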
# Conditions: purified CAL PDZ, TMR-peptide fluorescence polarization, 1 h; at 24.9 µM; stronger effect = higher value
row,SMILES,inhibition
1,O=C(NCC1(N2CCCCC2)CCCCC1)c1cc(F)c(F)cc1Cl,inactive: -2.42%
2,C=CCN1CCN(CCOC(=O)C(O)(c2ccccc2)c2ccccc2)CC1,inactive: 8.85%
3,O=C(NCC1(N2CCCCC2)CCCCC1)c1cccc(Br)c1,inactive: -2.91%
4,Cc1cc(C(=O)NCC2(N3CCCCC3)CCCCC2)ccc1[N+](=O)[O-],inactive: -4.69%
5,CCN1CCCC(OC(=O)C2(O)c3ccccc3C=Cc3ccccc32)C1 (centres undefined),inactive: -3.54%
6,COc1ccc(C(=O)NCC2(N(C)C)CCCCC2)cc1,inactive: 2.13%
7,CN(C)C1CCCC1OC(=O)C(O)(c1ccccc1)c1ccccc1 (centres undefined),inactive: -5.53%
8,CN(C)c1ccc(C(=O)NCC2(N(C)C)CCCCC2)cc1,inactive: -7.86%
9,Cc1ccccc1C(=O)NCC1(N2CCCCC2)CCCCC1,inactive: -2.43%
10,CC(C)N1C(=O)CC2(CCN(CCOC(=O)C(O)(c3ccccc3)c3ccccc3)CC2)C1=O,inactive: 0.732%
11,COc1cc(SC)ccc1C(=O)NCC1(N(C)C)CCCCC1,inactive: -1.76%
12,CCN(CC)CC(C)C(C)OC(=O)C(O)(c1ccccc1)c1ccccc1 (centres undefined),inactive: -0.688%
13,Cc1ccc(C(=O)NCC2(N3CCCCC3)CCCCC2)cc1,inactive: -4.1%
14,O=C(NCC1(N2CCCCC2)CCCCC1)c1cc([N+](=O)[O-])ccc1Cl,inactive: 12.2%
15,CN1[C@@H]2CC[C@H]1CC(OC(=O)C(O)(c1ccccc1)c1ccccc1)C2 (some centres undefined),inactive: 3.34%
16,COc1ccc(Br)c(C(=O)NCC2(N3CCCCC3)CCCCC2)c1,inactive: -3.43%
17,O=C(OCCN1CCCC1)C(O)(c1ccccc1)c1ccccc1,inactive: -4%
18,CC(C)Oc1ccc(C(=O)NCC2(N(C)C)CCCCC2)cc1,inactive: 0.12%
19,O=C(OC1CN2CCC1CC2)C(CO)(c1ccccc1)c1ccccc1 (centres undefined),inactive: -4.04%
20,COc1ccc(Cl)cc1C(=O)NCC1(N(C)C)CCCCC1,inactive: 1.54%
21,COc1cccc(C(=O)NCC2(N3CCCCC3)CCCCC2)c1,inactive: 4.61%
22,O=C(NCC1(N2CCCCC2)CCCCC1)c1cccc(Cl)c1,inactive: 3.94%
23,CN(C)C1(CNC(=O)c2ccc(Br)cc2)CCCCC1,inactive: -5.37%
24,COc1cc(C(=O)NCC2(N(C)C)CCCCC2)c([N+](=O)[O-])cc1OC,inactive: -8.3%
